## Antibody variant affinities, Ab-14 light chain, assay 1

Binding partner: SARS-CoV-2 spike HR2 peptide, sequence PDVDLGDISGINAS.

Parent scFv Ab-14: VH joined to VL by three GGGGS repeats. Changes lie in the light chain CDRs alone.
VH: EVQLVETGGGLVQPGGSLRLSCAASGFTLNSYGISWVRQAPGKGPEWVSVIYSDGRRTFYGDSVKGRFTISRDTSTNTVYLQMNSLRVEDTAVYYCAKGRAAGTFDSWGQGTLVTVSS
VL: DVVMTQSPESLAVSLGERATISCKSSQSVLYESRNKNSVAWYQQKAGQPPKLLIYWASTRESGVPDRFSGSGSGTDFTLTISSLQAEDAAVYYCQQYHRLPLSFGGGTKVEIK

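Library AAYL50 holds single substitutions and randomly drawn double and triple substitutions in the CDRs. The scFvs were displayed on barcoded MATa yeast, the peptide on MATalpha yeast. Pairs that bind mate more often; barcode pairs of the diploids are counted by sequencing. Each replicate has its own calibration line, from reference interactions of the BCL2 family. There are three technical replicates.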

Substitutions are numbered in sequence along the VL above, starting at 1 (not Kabat).
Scale: log10 of Kd in nM, estimated from mating counts; low values are strong binders.
A mean of the replicates is given; it leaves out those without a signal.
A pair that was not seen in that replicate is written "nd"; this usually means weak binding, but a binder can also be missed.

changes | log10 Kd (nM) by replicate | mean, log10 nM | empty controls
Q95L/S103R | nd / nd / nd | nd | 0/9
S25Y/R60H/P101V | nd / 3.07 / nd | 3.07 | 1/9 (3.41)
N35F/L102A | nd / nd / nd | nd | 0/9
S28A/R34L/A40R | nd / nd / nd | nd | 0/9
E32A/Q95Y | nd / nd / nd | nd | 1/9 (4.09)
N35C/S38D/A57M | nd / nd / nd | nd | 1/9 (3.47)
R34Q/R99I/S103H | 2.12 / 2.32 / 2.93 | 2.46 | 0/9
V29M/R60Q/L100R | nd / 3.86 / nd | 3.86 | 1/9 (4.24)
N35T/S58W/S62L | nd / 4.24 / 3.13 | 3.68 | 2/9 (2.92)
R34D/T59A/S62C | 2.76 / 2.76 / 2.26 | 2.59 | 1/9 (3.83)
K24G/E32I/R60Q | 4.26 / 4.18 / nd | 4.22 | 3/9 (4.67)
L100E/S103M | nd / nd / nd | nd | 0/9
S26N/K36I/Y97Q | nd / nd / 4.04 | 4.04 | 2/9 (4.12)
K36I/A57Q/P101W | nd / nd / nd | nd | 0/9
T59P/S62A/Y97Q | nd / 4.03 / nd | 4.03 | 1/9 (3.23)
L30F/K36T/E61A | 0.12 / 0.40 / 0.26 | 0.26 | 4/9 (4.16)
S33I/Y97Q/H98E | nd / nd / nd | nd | 1/9 (4.91)
S26L/R34Y/H98L | nd / nd / nd | nd | 0/9
K24M/V29K/A57P | nd / nd / nd | nd | 0/9
V29G/H98A | -0.12 / 0.21 / -0.01 | 0.03 | 0/9
S28K/W56I/H98G | nd / nd / nd | nd | 1/9 (2.38)
Y31A/A40G | 4.88 / nd / nd | 4.88 | 0/9
S62W | 0.55 / 1.23 / 1.38 | 1.05 | 0/9
R34P/A57S/R99M | 2.26 / 2.59 / 4.16 | 3.00 | 1/9 (2.96)
S26N/Q27N | 0.85 / 0.99 / 0.97 | 0.94 | 5/9 (4.97)
S25D/S62E/S103G | 0.50 / 0.96 / 0.87 | 0.78 | 0/9
W56S/E61T/L100F | -0.23 / 0.19 / -0.14 | -0.06 | 0/9
N35G/S38N/T59Q | 0.75 / 1.00 / 1.10 | 0.95 | 0/9
E32V/L102S | 3.91 / nd / nd | 3.91 | 1/9 (2.95)
W56F/S58G/S62P | nd / nd / nd | nd | 1/9 (2.64)
K24M/P101M | nd / nd / nd | nd | 2/9 (4.64)
V29T/S33Q/L100G | 0.59 / 1.18 / 1.24 | 1.01 | 1/9 (4.41)
K24E/R34V/W56C | 2.62 / 2.08 / 2.45 | 2.38 | 2/9 (4.51)
E32Q/H98F/L100Y | 1.49 / 1.50 / 1.65 | 1.55 | 2/9 (4.67)
R34Y/S58W/S62P | 1.30 / 1.37 / 1.30 | 1.33 | 2/9 (4.43)
Q27T/V29L/W56F | nd / nd / nd | nd | 1/9 (3.06)
A40H/L100I/L102W | nd / nd / nd | nd | 0/9
R34T/H98M/L102F | 1.05 / 1.22 / 1.30 | 1.19 | 1/9 (3.77)
Y31G/K36N | 1.90 / 1.70 / 2.06 | 1.89 | 9/9 (4.76)
Q27D/Q95L/L102G | 3.89 / 4.00 / 6.05 | 4.65 | 6/9 (4.39)
S26G/S28C/P101D | nd / nd / nd | nd | 0/9
S33R/N37D/Q95N | 2.25 / 2.13 / 2.26 | 2.21 | 1/9 (4.11)
Q27I/R99W/S103I | 1.59 / 1.35 / 0.90 | 1.28 | 2/9 (3.13)
Q27C/R60S/L100F | 3.48 / nd / nd | 3.48 | 0/9
Y31V/E32N/A57W | nd / nd / 5.45 | 5.45 | 0/9
Q27F/N35Y/Y97G | nd / 3.48 / nd | 3.48 | 3/9 (4.58)
L30A/A57M | 1.96 / 1.95 / 2.07 | 1.99 | 5/9 (4.04)
S25T/Q27C/W56M | 1.32 / 1.43 / 1.39 | 1.38 | 0/9
S25D/S38C/P101S | nd / nd / nd | nd | 0/9
V29M/R60H/Q96L | nd / 3.50 / 3.17 | 3.34 | 1/9 (4.06)
S25V/A40C/A57P | nd / nd / 4.15 | 4.15 | 4/9 (4.57)

Repeated from above, the 3 best binders with a signal in all replicates:

changes | log10 Kd (nM) by replicate | mean, log10 nM | empty controls
W56S/E61T/L100F | -0.23 / 0.19 / -0.14 | -0.06 | 0/9
V29G/H98A | -0.12 / 0.21 / -0.01 | 0.03 | 0/9
L30F/K36T/E61A | 0.12 / 0.40 / 0.26 | 0.26 | 4/9 (4.16)

As a blank, each scFv also met three strains without target: over library AAYL50, 18% of these pairings were detected, typically at 4.19 and seldom below 2.99. The control count says in how many pairings with the empty strains this scFv gave a signal, with their mean in brackets.

Data: MIT Lincoln Laboratory AlphaSeq set, Engelhart et al. 2022, doi:10.1038/s41597-022-01779-4, as distributed in FLAb.